A selection: hits, their analogues and other compounds. The true share with any hit is near 16%.
uPA generation: inhibitors of cell surface uPA generation | cell surface uPA generation assay, qHTS | Potency, µM (doses to about 38.3 µM), most hits filed as inhibitors | 0.31% of 330,000 active | AID 540303; active = well fitted inhibition curve with a large enough effect; inconclusive = small, poorly fitted or top-dose-only effect; inactive = no such curve, though single readings can be large or run the other way; tested in mouse RAW 264.7 cells; note: nearly all actives have a fitted effect of over 55% in size
TDP1 cell noCPT: qHTS for Inhibitors of human tyrosyl-DNA phosphodiesterase 1 (TDP1): qHTS in cells in absence of CPT | 15% of 420,000 active | DT40 Tdp1-/- hTDP1 cells, no CPT, ATP luminescence, 48 h | Potency, µM (series often up to 46.2 µM), actives largely listed as inhibitors; note: nearly all actives have a fitted effect of over 55% in size
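Luminescent ATP content (CellTiter-Glo) served as the growth readout. Knockout chicken DT40 cells expressing human TDP1 were exposed to compounds without camptothecin for a minimum 48 hr at 37 °C.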
TDP1 cell CPT: growth inhibition of DT40 Tdp1-/-;hTDP1 cells with camptothecin (screen for TDP1 inhibitors); chicken DT40 Tdp1-/-;hTDP1 cells + 20 nM CPT, ATP luminescence, 48 h; Potency, µM (top dose mostly 46.2 µM), usual class: inhibitors; 12% of 420,000 active; AID 686979; note: nearly all actives have a fitted effect of over 55% in size
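Cell growth measured by CellTiter-Glo luminescence after a minimum 48 h, 37 C compound exposure with 20 nM CPT in Tdp1-knockout DT40 cells stably expressing hTDP1, seeded 400/well; qHTS titration format.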
miR-21 FLuc: raises the signal of a miR-21 reporter | AID 2288 | 340,000 tested, under 10 active | Potency, µM (series often up to 38.3 µM) | HeLa miR-21 FLuc reporter, luciferase, 48 h; active = well fitted rising curve with a large enough effect; inconclusive = small, poorly fitted or top-dose-only effect; inactive = no such curve, though single readings can be large or run the other way;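 further: miR-21 action dims this reporter so a rising signal means less miR-21 action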
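Using DMEM plus 10% FBS, HeLa miR-21-FLuc cells are incubated with test compounds (final up to about 40uM) for 48 hours; firefly luciferase signal is then imaged following reagent-mediated lysis.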
TDP1 inh: blocks human tyrosyl-DNA phosphodiesterase 1 | 0.28% of 350,000 active | Potency, µM (doses to about 130 µM), usual class: inhibitors | AID 485290 | recombinant TDP1, AlphaScreen DNA substrate cleavage; note: nearly all actives have a fitted effect of over 40% in size
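Steps: enzyme plus compound, 15 min RT; add biotin/phosphotyrosine-FITC oligonucleotide (15 nM final), react 5 min; add donor/acceptor beads (10 ug/ml final), 10 min; read AlphaScreen. Tdp1 at 1 nM final.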
Of the large screens only hits and unclear results are named; the others gave an inactive call. Unless noted, calls come from the whole dose curve; as a rule, active = well fitted curve in the direction sought with a large enough effect; inconclusive = small, poorly fitted or top-dose-only effect, or another doubt; inactive = no such curve, though single readings can be large; an effect the other way counts as inactive or inconclusive.

COc1ccccc1C(=O)NCc1ccccc1	TDP1 cell CPT inconclusive
COC(=O)c1cc(CNC(=O)c2ccccc2F)cc(NC(=O)c2ccccc2OC)c1	TDP1 cell noCPT 23µM (no result: uPA generation, miR-21 FLuc, TDP1 inh)
COC(=O)c1cc(CNC(=O)c2ccccc2OC)cc(NC(=O)c2ccccc2F)c1	TDP1 cell noCPT 16µM, TDP1 cell CPT 21µM (no result: uPA generation, miR-21 FLuc, TDP1 inh)
COc1ccc(CN2C(=O)c3cccnc3C2=O)cc1S(=O)(=O)NC(C)C	none (no result: TDP1 inh)
O=C(Nc1ncc(Cc2ccc(F)cc2)s1)c1ccc2c(c1)CC(c1ccccc1)OC2=O (stereo not drawn)	TDP1 cell noCPT 23µM, TDP1 cell CPT inconclusive (no result: uPA generation)
O=c1cc(N2CCCCC2)c(-c2ccccc2)nn1Cc1c(Cl)cccc1Cl	TDP1 cell noCPT 16µM, TDP1 cell CPT inconclusive
COCc1cc(O)c(O)c(O)c1-c1c(COC)cc(O)c(O)c1O	TDP1 cell noCPT 4.5µM, TDP1 cell CPT 5µM (no result: uPA generation, miR-21 FLuc, TDP1 inh)
COc1ccc(CCC(=O)O)c(O)c1	none (no result: TDP1 inh)
CN1C(=S)N(c2cccnc2)C(=O)/C1=C\c1ccc(C(C)(C)C)cc1	uPA generation inconclusive, TDP1 cell noCPT 15µM, TDP1 cell CPT 16µM
Cc1ccc(-c2nn3c(C)nnc3s2)cc1NC(=O)c1ccc(OC(C)C)cc1	TDP1 cell noCPT inconclusive, TDP1 cell CPT 13µM
Cc1cc(OCC(=O)Nc2cc(-c3nn4c(C)nnc4s3)ccc2C)ccc1Cl	TDP1 cell noCPT inconclusive, TDP1 cell CPT 4.1µM
COc1ccc(C(=O)Nc2cc(-c3nn4c(C)nnc4s3)ccc2C)cc1	none
CN(C)C(=O)C12CCC(C)(C(=O)C1Br)C2(C)C (stereo not drawn)	none
COc1ccc(C)cc1NC(=O)c1cn(C)c(=O)c2cc(OC)c(OC)cc12	none (no result: uPA generation)
COc1ccc(CCNC(=O)c2ccc(Cn3c(=O)c4ccccc4n(Cc4ccc(F)cc4Cl)c3=O)cc2)cc1OC	none (no result: uPA generation)
COCCCNC(=O)c1ccc(Cn2c(=O)c3ccccc3n(Cc3ccccc3C#N)c2=O)cc1	TDP1 cell noCPT inconclusive, TDP1 cell CPT 16µM
CCn1c(=O)c(C(=O)NCCc2ccc(OC)c(OC)c2)c(O)c2ccccc21	TDP1 cell noCPT 21µM, TDP1 cell CPT 16µM (no result: TDP1 inh)
COc1ccc(CCNC(=O)c2ccc(Cn3c(=O)c4ccccc4n(Cc4cccc(Cl)c4)c3=O)cc2)cc1OC	TDP1 cell noCPT 10µM, TDP1 cell CPT 21µM (no result: uPA generation)
COc1ccc(CCNC(=O)c2ccc(Cn3c(=O)c4ccccc4n(Cc4cccc(F)c4)c3=O)cc2)cc1OC	TDP1 cell noCPT 16µM, TDP1 cell CPT 16µM (no result: uPA generation)
CC(=O)CCCC(NS(=O)(=O)CCC(Cl)(Cl)Cl)c1ccccc1 (stereo not drawn)	none (no result: TDP1 inh)
COCCCNC(=O)c1ccc(Cn2c(=O)c3ccccc3n(CC(=O)NCCc3ccc(OC)c(OC)c3)c2=O)cc1	TDP1 cell noCPT 18µM, TDP1 cell CPT 23µM
CCOC(=O)C1(Cc2cccc(Cl)c2)CCCN(C(=O)c2cc(CC)on2)C1 (stereo not drawn)	TDP1 cell noCPT 16µM, TDP1 cell CPT inconclusive
CCOC(=O)C1(Cc2cccc(OC)c2)CCCN(C(=O)c2cc(C)oc2C)C1 (stereo not drawn)	TDP1 cell noCPT 13µM, TDP1 cell CPT 21µM
CCOC(=O)C1(Cc2cccc(Cl)c2)CCCN(C(=O)c2cc(C)n(C)n2)C1 (stereo not drawn)	TDP1 cell noCPT inconclusive, TDP1 cell CPT inconclusive
CCCc1cc(C(=O)N2CCCC(Cc3cccc(Cl)c3)(C(=O)OCC)C2)n(C)n1 (stereo not drawn)	TDP1 cell noCPT 13µM, TDP1 cell CPT 18µM
CCOC(=O)C1(Cc2cccc(Cl)c2)CCCN(C(=O)c2ccnn2C)C1 (stereo not drawn)	TDP1 cell noCPT inconclusive, TDP1 cell CPT 15µM
CCOC(=O)C1(Cc2cccc(Cl)c2)CCCN(C(=O)c2cn[nH]c2)C1 (stereo not drawn)	none
COC(=O)[C@]1(Cc2ccccc2)N[C@H](c2ccc(-c3cccc(Cl)c3)cc2)[C@@H]2C(=O)N(C)C(=O)[C@@H]21	uPA generation inconclusive, TDP1 cell noCPT inconclusive, TDP1 cell CPT 16µM (no result: miR-21 FLuc)
COC(=O)[C@]1(Cc2ccccc2)N[C@H](c2ccc(-c3ccc(Cl)c(Cl)c3)cc2)[C@@H]2C(=O)N(C)C(=O)[C@@H]21	TDP1 cell noCPT 18µM, TDP1 cell CPT 18µM (no result: miR-21 FLuc)
COC(=O)[C@]1(Cc2ccccc2)N[C@H](c2ccc(-c3cc(C(C)=O)cs3)cc2)[C@@H]2C(=O)N(C)C(=O)[C@@H]21	TDP1 cell noCPT 23µM, TDP1 cell CPT 16µM (no result: miR-21 FLuc, TDP1 inh)
COC(=O)[C@]1(Cc2ccccc2)N[C@H](c2ccc(-c3ccccc3)cc2)[C@@H]2C(=O)N(C)C(=O)[C@@H]21	TDP1 cell noCPT inconclusive, TDP1 cell CPT inconclusive (no result: miR-21 FLuc)
COC(=O)C1(Cc2ccccc2)NC(c2ccc(F)cc2)C2C(=O)N(C)C(=O)C21 (stereo not drawn)	TDP1 cell noCPT inconclusive
Cn1cccc1/C=N/NC(=O)Cc1cccs1	none
Cc1cccc(NC(=O)C2CC(=O)n3cnnc3S2)c1 (stereo not drawn)	TDP1 cell noCPT 5.8µM, TDP1 cell CPT 4.6µM
CC1CCN(c2ccc(-c3cccs3)nn2)CC1	uPA generation 0.89µM, TDP1 cell noCPT 10µM, TDP1 cell CPT inconclusive (no result: TDP1 inh)
CC1CCN(c2nnc(N3CCC(C)CC3)c3ccccc23)CC1	TDP1 cell noCPT inconclusive, TDP1 cell CPT inconclusive (no result: TDP1 inh)
Cc1ccc(NCN2C(=O)C(=O)c3ccccc32)nc1	uPA generation inconclusive, TDP1 cell noCPT 1.3µM, TDP1 cell CPT 2.3µM
CCOC(=O)c1oc2c(O)c(O)ccc2c(=O)c1-c1nncn1-c1ccccc1	none
CCOC(=O)Cc1nn[nH]n1	none
COc1cc(NC(=O)Cn2c(=O)n(-c3cccc(C)c3)c(=O)c3c(C)c(C)sc32)cc(OC)c1	TDP1 cell CPT 21µM
Cc1sc2c(c1C)c(=O)n(-c1ccccc1)c(=O)n2CC(=O)c1ccc(Cl)cc1	TDP1 cell noCPT 16µM, TDP1 cell CPT inconclusive (no result: uPA generation)
Cc1ccc(Cn2c(=O)n(Cc3ccccc3)c(=O)c3c(C)c(C)sc32)cc1	none (no result: uPA generation)
CCOc1ccc(-n2c(=O)c3c(C)c(C)sc3n(Cc3ccc(C(C)(C)C)cc3)c2=O)cc1	TDP1 cell noCPT inconclusive, TDP1 cell CPT 21µM (no result: uPA generation)
CCOc1ccc(-n2c(=O)c3c(C)c(C)sc3n(CC(=O)C(C)(C)C)c2=O)cc1	TDP1 cell noCPT 23µM, TDP1 cell CPT inconclusive (no result: uPA generation)
CNCCC(=O)N1c2ccccc2CCc2ccc(NC(=O)OC)cc21	TDP1 cell noCPT inconclusive, TDP1 cell CPT inconclusive (no result: TDP1 inh)
COC(=O)CN1C(=O)CSc2ccc(S(=O)(=O)Nc3cccc(Br)c3)cc21	TDP1 cell noCPT inconclusive (no result: uPA generation, TDP1 inh)
CC(C)(C)C(=O)Cn1c(=O)n(-c2ccccc2)c(=O)c2c3c(sc21)CCC3	TDP1 cell noCPT 18µM, TDP1 cell CPT 15µM (no result: uPA generation)

Source: PubChem BioAssay
